Data as given in publication PMC3961306, “Comparison of the Cancer Gene Targeting and Biochemical Selectivities of All Targeted Kinase Inhibitors Approved for Clinical Use” (PLoS ONE, 2014).

By UniProt entry, the sequences of proteins in these tests, tags left out. Residues count along the entry.
UniProt P07947, whole entry, stated change not applied: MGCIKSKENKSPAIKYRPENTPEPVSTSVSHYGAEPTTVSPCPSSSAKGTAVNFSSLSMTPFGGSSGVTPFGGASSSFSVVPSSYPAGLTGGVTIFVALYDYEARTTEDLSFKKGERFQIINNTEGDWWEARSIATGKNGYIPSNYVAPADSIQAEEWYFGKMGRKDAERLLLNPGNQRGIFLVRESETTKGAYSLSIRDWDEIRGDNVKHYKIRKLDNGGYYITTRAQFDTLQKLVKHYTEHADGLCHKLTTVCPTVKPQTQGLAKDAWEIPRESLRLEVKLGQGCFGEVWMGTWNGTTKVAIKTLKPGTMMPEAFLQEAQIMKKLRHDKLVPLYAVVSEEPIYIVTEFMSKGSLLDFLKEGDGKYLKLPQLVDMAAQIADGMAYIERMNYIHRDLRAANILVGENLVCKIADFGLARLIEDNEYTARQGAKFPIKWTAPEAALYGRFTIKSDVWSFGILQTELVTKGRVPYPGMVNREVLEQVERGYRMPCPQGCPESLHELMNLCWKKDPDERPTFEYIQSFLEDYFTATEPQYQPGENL
UniProt P54764, 20-986, stated change not applied: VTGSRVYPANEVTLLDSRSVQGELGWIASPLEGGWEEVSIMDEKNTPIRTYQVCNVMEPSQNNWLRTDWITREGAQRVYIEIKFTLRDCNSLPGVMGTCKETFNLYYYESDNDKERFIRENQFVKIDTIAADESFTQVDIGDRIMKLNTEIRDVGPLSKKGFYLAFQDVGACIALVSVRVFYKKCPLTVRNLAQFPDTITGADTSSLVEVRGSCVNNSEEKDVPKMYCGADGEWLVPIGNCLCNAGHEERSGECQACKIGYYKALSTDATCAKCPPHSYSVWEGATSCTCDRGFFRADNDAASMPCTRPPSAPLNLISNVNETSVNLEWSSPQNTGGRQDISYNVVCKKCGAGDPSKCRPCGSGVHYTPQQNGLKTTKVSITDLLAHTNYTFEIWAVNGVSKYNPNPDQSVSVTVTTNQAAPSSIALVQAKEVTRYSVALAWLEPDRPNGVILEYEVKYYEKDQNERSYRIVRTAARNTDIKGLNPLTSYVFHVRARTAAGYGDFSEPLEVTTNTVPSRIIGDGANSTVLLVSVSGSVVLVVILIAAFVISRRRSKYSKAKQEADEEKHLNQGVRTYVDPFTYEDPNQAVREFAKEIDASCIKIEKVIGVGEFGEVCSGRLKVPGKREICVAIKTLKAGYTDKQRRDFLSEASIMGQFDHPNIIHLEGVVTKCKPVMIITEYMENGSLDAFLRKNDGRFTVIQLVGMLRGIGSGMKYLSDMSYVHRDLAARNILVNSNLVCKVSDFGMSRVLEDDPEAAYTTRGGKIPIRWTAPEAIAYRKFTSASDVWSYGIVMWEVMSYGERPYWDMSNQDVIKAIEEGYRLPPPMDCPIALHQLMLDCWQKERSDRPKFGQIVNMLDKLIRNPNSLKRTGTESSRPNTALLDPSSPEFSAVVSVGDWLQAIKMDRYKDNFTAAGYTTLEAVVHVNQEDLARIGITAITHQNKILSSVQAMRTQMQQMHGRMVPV
UniProt Q9UL54, whole entry, stated change not applied: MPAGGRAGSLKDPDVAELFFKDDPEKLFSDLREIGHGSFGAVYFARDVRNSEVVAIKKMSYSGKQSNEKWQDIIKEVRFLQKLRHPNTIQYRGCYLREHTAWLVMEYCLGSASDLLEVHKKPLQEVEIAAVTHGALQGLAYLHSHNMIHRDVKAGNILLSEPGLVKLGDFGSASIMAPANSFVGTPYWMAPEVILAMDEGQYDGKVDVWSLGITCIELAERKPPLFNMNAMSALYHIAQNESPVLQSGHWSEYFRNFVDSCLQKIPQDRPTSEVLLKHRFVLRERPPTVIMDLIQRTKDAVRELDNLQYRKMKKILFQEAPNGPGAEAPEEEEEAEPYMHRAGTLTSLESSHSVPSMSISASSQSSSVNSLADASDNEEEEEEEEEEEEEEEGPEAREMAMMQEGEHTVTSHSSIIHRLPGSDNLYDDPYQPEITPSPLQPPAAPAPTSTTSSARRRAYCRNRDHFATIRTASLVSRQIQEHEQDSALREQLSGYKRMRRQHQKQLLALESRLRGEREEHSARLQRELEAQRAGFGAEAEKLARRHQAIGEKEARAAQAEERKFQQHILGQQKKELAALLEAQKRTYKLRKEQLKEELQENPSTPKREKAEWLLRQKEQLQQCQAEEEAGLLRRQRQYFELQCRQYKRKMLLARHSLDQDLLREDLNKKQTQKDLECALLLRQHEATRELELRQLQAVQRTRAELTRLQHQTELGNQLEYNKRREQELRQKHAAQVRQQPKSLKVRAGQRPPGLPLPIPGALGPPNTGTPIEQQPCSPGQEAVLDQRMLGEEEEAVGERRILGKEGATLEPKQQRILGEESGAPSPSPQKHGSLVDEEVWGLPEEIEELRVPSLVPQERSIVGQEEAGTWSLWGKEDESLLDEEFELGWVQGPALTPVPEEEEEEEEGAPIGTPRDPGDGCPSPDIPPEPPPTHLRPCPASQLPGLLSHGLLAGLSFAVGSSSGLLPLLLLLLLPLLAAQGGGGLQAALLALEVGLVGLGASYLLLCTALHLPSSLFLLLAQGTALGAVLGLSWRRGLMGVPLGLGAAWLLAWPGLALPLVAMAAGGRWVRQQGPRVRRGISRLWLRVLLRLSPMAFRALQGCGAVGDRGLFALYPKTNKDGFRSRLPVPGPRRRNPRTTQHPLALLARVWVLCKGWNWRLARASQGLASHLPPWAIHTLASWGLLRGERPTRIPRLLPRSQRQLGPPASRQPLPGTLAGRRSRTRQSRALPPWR
UniProt P49137, whole entry, stated change not applied: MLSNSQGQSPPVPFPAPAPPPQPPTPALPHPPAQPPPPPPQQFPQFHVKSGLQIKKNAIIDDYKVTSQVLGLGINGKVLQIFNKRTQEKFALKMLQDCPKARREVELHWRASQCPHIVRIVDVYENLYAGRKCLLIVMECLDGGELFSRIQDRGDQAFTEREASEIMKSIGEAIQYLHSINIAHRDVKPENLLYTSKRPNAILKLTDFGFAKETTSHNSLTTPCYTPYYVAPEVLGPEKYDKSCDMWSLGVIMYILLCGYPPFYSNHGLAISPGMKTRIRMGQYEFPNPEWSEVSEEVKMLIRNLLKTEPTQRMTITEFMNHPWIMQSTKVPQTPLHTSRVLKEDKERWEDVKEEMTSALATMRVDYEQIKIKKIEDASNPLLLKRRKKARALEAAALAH
UniProt Q13164, whole entry, stated change not applied: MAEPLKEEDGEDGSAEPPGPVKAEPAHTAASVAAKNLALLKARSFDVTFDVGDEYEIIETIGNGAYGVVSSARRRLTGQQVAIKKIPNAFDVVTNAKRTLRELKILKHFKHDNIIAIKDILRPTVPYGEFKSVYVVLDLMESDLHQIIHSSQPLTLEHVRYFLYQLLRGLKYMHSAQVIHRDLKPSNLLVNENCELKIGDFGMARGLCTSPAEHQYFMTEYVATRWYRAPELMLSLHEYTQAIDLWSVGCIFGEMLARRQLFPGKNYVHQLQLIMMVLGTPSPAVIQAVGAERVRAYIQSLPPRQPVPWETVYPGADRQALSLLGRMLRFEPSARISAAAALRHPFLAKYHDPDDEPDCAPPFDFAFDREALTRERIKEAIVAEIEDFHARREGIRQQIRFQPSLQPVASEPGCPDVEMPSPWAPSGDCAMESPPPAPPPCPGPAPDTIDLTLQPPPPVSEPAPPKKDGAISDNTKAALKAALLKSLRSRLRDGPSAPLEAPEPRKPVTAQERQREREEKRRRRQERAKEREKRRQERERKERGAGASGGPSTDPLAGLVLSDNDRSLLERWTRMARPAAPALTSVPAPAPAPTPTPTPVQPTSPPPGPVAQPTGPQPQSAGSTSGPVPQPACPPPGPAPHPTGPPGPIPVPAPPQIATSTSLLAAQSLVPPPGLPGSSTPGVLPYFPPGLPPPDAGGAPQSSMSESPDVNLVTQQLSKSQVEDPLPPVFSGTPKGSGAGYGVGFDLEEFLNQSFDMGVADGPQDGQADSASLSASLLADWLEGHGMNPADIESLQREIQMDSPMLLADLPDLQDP
UniProt P35916, 25-1363, stated change not applied: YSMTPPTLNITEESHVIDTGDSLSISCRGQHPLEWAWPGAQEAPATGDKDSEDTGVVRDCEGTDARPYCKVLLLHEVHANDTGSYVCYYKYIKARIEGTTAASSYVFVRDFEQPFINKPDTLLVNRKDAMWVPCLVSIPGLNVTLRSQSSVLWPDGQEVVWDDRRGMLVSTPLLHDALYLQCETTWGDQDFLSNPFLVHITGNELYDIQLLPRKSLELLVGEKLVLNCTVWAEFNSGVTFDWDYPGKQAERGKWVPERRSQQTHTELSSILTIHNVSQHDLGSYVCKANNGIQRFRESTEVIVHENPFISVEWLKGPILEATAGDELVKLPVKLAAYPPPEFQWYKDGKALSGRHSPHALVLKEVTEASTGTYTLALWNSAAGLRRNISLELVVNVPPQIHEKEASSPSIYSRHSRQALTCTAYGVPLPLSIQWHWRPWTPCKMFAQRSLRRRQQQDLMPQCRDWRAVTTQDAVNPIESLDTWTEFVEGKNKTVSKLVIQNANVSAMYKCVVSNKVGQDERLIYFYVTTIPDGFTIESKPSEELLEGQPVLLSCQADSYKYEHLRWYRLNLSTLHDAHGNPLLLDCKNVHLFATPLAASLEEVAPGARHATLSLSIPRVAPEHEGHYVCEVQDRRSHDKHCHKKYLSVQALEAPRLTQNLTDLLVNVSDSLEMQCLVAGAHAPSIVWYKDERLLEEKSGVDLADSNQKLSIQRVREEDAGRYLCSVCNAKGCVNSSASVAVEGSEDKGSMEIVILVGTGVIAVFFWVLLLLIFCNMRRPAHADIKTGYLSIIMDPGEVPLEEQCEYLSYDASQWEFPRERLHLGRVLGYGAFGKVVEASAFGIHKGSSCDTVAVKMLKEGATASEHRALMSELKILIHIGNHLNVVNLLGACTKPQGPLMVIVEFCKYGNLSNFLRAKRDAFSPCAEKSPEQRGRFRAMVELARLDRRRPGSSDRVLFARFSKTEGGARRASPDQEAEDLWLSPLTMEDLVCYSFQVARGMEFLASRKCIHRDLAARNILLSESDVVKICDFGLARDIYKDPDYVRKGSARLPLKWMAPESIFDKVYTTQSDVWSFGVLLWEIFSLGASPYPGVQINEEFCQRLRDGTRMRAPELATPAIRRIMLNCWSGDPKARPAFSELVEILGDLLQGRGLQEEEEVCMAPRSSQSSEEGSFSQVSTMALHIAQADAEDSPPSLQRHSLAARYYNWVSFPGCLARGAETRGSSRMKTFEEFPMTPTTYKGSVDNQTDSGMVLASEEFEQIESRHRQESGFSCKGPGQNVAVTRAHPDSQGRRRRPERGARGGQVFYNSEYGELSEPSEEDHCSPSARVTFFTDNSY
UniProt Q9Y6M4, whole entry, stated change not applied: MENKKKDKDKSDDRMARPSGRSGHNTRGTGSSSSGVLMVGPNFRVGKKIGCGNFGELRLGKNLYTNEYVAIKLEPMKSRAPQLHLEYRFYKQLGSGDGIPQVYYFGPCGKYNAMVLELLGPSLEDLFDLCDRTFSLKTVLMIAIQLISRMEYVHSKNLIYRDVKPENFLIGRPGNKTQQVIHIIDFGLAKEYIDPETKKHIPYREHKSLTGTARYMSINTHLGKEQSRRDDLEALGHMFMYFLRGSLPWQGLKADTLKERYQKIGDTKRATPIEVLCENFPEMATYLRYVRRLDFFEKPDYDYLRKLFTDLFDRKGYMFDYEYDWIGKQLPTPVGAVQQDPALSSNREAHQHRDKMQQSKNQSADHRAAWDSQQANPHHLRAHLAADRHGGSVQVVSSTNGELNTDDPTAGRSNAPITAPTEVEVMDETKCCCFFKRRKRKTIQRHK
UniProt Q06418, 41-890, stated change not applied: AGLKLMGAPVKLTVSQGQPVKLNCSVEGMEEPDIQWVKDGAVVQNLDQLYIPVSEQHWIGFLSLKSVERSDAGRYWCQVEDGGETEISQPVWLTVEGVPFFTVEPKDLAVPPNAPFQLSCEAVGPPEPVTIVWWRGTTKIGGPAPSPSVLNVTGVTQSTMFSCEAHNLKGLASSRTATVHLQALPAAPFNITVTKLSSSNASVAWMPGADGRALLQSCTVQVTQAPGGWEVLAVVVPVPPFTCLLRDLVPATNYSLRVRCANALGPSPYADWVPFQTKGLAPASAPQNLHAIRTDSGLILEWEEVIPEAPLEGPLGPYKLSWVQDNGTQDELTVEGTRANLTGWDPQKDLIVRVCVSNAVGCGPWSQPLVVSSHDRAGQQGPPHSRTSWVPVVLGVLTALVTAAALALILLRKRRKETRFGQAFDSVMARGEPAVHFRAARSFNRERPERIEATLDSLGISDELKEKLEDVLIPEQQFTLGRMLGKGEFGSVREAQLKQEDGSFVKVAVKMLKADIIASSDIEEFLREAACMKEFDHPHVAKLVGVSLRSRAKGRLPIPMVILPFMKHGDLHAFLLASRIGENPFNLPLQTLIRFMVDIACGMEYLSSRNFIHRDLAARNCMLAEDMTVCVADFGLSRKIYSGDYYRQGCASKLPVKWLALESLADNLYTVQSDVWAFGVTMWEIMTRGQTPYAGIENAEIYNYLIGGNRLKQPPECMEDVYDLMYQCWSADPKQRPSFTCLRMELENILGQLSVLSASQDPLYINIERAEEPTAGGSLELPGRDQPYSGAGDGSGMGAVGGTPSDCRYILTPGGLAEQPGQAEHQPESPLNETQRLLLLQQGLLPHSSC

What was measured:
Experiment in all cases: Kinase profiling in a biochemical assay panel (mobility shift assays and ELISA), %-inhibition at 1 μM; selectivity entropy
[1] = biological target: panel of more than 300 wild-type and mutant kinases (313 kinase panel) (Homo sapiens, UniProt P07947)
[2] = biological target: panel of more than 300 wild-type and mutant kinases (313 kinase panel) (Homo sapiens, UniProt Q9Y6R4)
[3] = biological target: T1, panel of more than 300 wild-type and mutant kinases (313 kinase panel) (Homo sapiens, UniProt P54753)
T1 sequence (P54753 34-998): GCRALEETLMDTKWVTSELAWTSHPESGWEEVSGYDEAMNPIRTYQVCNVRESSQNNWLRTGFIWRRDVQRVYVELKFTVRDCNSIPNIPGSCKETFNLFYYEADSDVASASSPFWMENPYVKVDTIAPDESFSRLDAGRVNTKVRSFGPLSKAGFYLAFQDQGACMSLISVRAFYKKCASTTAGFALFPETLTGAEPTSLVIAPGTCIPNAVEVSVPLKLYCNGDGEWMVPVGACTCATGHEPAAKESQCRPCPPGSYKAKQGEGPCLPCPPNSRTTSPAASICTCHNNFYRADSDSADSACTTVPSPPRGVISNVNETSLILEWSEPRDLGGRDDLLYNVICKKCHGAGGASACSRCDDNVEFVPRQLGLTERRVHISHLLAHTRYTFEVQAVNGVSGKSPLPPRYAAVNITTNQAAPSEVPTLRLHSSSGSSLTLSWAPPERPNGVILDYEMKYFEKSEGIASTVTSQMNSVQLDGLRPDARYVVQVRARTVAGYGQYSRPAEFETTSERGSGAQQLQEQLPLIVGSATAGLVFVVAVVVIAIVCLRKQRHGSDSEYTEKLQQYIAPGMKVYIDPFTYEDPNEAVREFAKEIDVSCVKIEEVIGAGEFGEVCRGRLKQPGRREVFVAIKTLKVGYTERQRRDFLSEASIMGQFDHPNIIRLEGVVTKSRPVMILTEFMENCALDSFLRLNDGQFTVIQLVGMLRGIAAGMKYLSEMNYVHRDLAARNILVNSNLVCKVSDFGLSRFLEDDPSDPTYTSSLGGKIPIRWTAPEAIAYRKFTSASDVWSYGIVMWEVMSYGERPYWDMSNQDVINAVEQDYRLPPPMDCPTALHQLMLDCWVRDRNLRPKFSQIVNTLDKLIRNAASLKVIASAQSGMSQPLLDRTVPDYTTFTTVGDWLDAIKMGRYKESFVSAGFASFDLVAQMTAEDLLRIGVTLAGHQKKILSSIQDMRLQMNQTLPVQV

[4] = biological target: panel of more than 300 wild-type and mutant kinases (313 kinase panel) (Homo sapiens, UniProt Q16512)
[5] = biological target: panel of more than 300 wild-type and mutant kinases (313 kinase panel) (Homo sapiens, UniProt P54764)
[6] = biological target: panel of more than 300 wild-type and mutant kinases (313 kinase panel) (Homo sapiens, UniProt Q9UL54); conditions: 1 µM
[7] = biological target: panel of more than 300 wild-type and mutant kinases (313 kinase panel) (Homo sapiens, UniProt Q15119)
[8] = biological target: panel of more than 300 wild-type and mutant kinases (313 kinase panel) (Homo sapiens, UniProt P41743); conditions: 1 µM
[9] = biological target: panel of more than 300 wild-type and mutant kinases (313 kinase panel) (Homo sapiens, UniProt Q13177); conditions: 1 µM
[10] = biological target: panel of more than 300 wild-type and mutant kinases (313 kinase panel) (Homo sapiens, UniProt P49137); conditions: 1 µM
[11] = biological target: panel of more than 300 wild-type and mutant kinases (313 kinase panel) (Homo sapiens, UniProt Q13164); conditions: 1 µM
[12] = biological target: panel of more than 300 wild-type and mutant kinases (313 kinase panel) (Homo sapiens, UniProt P24723); conditions: 1 µM
[13] = biological target: panel of more than 300 wild-type and mutant kinases (313 kinase panel) (Homo sapiens, UniProt Q8TDC3); conditions: 1 µM
[14] = biological target: panel of more than 300 wild-type and mutant kinases (313 kinase panel) (Homo sapiens, UniProt P35916); conditions: 1 µM
[15] = biological target: panel of more than 300 wild-type and mutant kinases (313 kinase panel) (Homo sapiens, UniProt Q9Y6M4); conditions: 1 µM
[16] = biological target: panel of more than 300 wild-type and mutant kinases (313 kinase panel) (Homo sapiens, UniProt Q06418); conditions: 1 µM

CNC(=O)c1ccccc1Sc1ccc2c(/C=C/c3ccccn3)n[nH]c2c1 [axitinib]
%-inhibition of YES ([1]; kinase YES, compound at 1 μM): 79% | %-inhibition of MAP3K4 ([2]; kinase MAP3K4, compound at 1 μM): 27% | %-inhibition of EPHB3 ([3]; kinase EPHB3, compound at 1 μM): -1.88% | %-inhibition of PKN1 ([4]; kinase PKN1, 1 μM): 7% | %-inhibition of EPHA4 ([5]; kinase EPHA4, compound at 1 μM): -0.553%

COc1cc2ncnc(Nc3ccc(F)c(Cl)c3)c2cc1OCCCN1CCOCC1 [gefitinib]
%-inhibition of TAOK2 [6]: -7% | %-inhibition of PDHK2 ([7]; kinase PDHK2, 1 μM): -2% | %-inhibition of PKCι [8]: 9% | %-inhibition of PAK2 [9]: 3.56% | %-inhibition of MAPKAPK2 [10]: 4% | %-inhibition of MAP3K4 ([2]; 1 µM): -13% | %-inhibition of Erk5 [11]: 19% | %-inhibition of PKCη [12]: 5.46% | %-inhibition of EPHB3 ([3]; 1 µM): 9% | %-inhibition, BRSK1 [13]: 10% | %-inhibition of FLT4 [14]: 19% | %-inhibition, CK1γ3 [15]: -2.3% | %-inhibition of TYRO3 [16]: 26%

C[C@@H]1CCN(C(=O)CC#N)C[C@@H]1N(C)c1ncnc2[nH]ccc12 [tofacitinib]
%-inhibition of TAOK2 [6]: 1.78% | %-inhibition of YES ([1]; 1 µM): 12% | %-inhibition of PDHK2 ([7]; 1 µM): -2.2% | %-inhibition of PKCι [8]: -14% | %-inhibition of PAK2 [9]: -21% | %-inhibition of MAPKAPK2 [10]: -17% | %-inhibition of MAP3K4 ([2]; 1 µM): -3.74% | %-inhibition of Erk5 [11]: -0.709% | %-inhibition of PKCη [12]: -12% | %-inhibition of EPHB3 ([3]; 1 µM): -0.341% | %-inhibition, BRSK1 [13]: -2.57% | %-inhibition of PKN1 ([4]; 1 µM): 91% | %-inhibition of FLT4 [14]: 19% | %-inhibition of EPHA4 ([5]; 1 µM): -2% | %-inhibition, CK1γ3 [15]: 1.75% | %-inhibition of TYRO3 [16]: 0.492%
